# Screening results (PubChem BioAssay)
# iPSC survival up: hiPSC single-cell survival enhancement; 360,000 compounds, 0.044% hits; survival enhancement, % at 20 µM; ATPlite luminescence; 100% = ROCK inhibitor wells, 0% = DMSO; in the data active means survival enhancement above about 18%;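 further: cells exposed to compounds for 16 hours before the ATP read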
# FN deposit inh: fibronectin deposition inhibition | AH1F fibroblasts, Alexa488-fibronectin deposition fluorescence, overnight | 350,000 compounds, 0.086% hits | inhibition, % at 12.6 µM;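 active means mean inhibition across replicates of 30% or more, regardless of how many single replicates reach that level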;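 further: positive control wells lacked labelled fibronectin entirely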
#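 Schedule: 1 h cell adhesion before compound, then overnight fibronectin incubation; test system: AH1F fibroblast monolayer depositing Alexa488-labelled fibronectin into matrix; quantity: 10000 AH1F cells per well; probe or stimulus: fluorescent fibronectin at 24 nM final; signal: fluorescence, ex 485 nm, em 525 nm; evaluation: percent inhibition as loss of matrix-bound fibronectin fluorescence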
# PGC1a acetyl inh: lowers PGC1a acetylation signal in U2OS cells. 350,000 compounds, 0.17% hits. AID 651687. AlphaScreen anti-acetyl-lysine; with virally co-expressed GCN5 acetyltransferase. inhibition, % at 15.6 µM;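 active means every replicate shows inhibition of at least 40%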;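 further: 0% = neutral control wells and 100% = positive control wells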
# Yeast UUG start: modulators of start codon recognition fidelity in yeast. S. cerevisiae UUG-firefly luciferase reporter, luminescence/redox ratio. activity score, % at 18.7 µM. 350,000 tested, 0.13% active;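 active = replicate mean at a twofold rise or more, about +100% in these data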;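 note: firefly luciferase made from a UUG start codon reports start codon fidelity; reporter light over untreated wells divided by growth signal over untreated wells; some hits fall short of that in this replicate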
# C2C12 statin: suppression of simvastatin myotoxicity; C2C12 myotubes + simvastatin, ATP luminescence, 48 h; scaled: DMSO 0, geranylgeraniol control 100; rescue of ATP level, % at 7.49 µM; 330,000 compounds, 0.78% hits; AID 602340;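 active means mean ATP rescue above about 67%, or every replicate alone reaching that limit, limit read from the data, passing the limit was not always enough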;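 further: myotubes were challenged with 10 µM simvastatin during compound exposure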
# Active calls of the source: *; . = no result given. Shown are actives, neighbours in structure and some others; about 0.91% of the full set was active somewhere.
1) Cn1c(=O)c2c(ncn2CC(=O)NCc2cccnc2)n(C)c1=O
2) Cn1c(=O)c2c(ncn2CC(=O)OCC(=O)NCc2ccc(Cl)cc2)n(C)c1=O
3) C=C1C(=O)C23C(O)C1CCC2C12COC3(O)C(O)C1C(C)(C)CCC2O (stereo unspecified)
4) C[C@H]1CN([C@@H](C)CO)C(=O)c2cccc(NC(=O)Nc3ccc(F)cc3)c2O[C@@H]1CN(C)S(C)(=O)=O
5) O=C1Nc2ccccc2N=C(c2ccccc2)C1N(Cc1ccc(F)cc1)C(=O)c1cccnc1 (stereo unspecified)
6) COc1ccccc1C=NN1CCCCCC1
7) Fc1ccc(/C=N/N2CCCCC2)c(F)c1
8) C/C=C/c1cnc2c(c1)C(=O)N([C@@H](C)CO)C[C@H](C)[C@@H](CN(C)CC1CCCC1)O2
assay / compound,1,2,3,4,5,6,7,8
iPSC survival up,26*,0,-1,.,2,-1,1,.
FN deposit inh,.,2,.,.,-7,-4,3,.
PGC1a acetyl inh,3,.,-14,4,41*,-4,66*,1
Yeast UUG start,2,.,7,11,-1,-14,-9,-8
C2C12 statin,106*,.,110*,-16,-5,3,1,7

9) O=S(=O)(NC1=NCCCCC1)c1ccc2sc(NS(=O)(=O)c3ccc4ccccc4c3)nc2c1
10) O=S(=O)(Nc1nc2c(s1)CCCC2)c1ccc2ccccc2c1
11) COC(=O)[C@H](C)NC(=O)NC(C)CCc1ccccc1 (stereo partly specified)
12) COC(=O)[C@@H](NC(=O)NC(C)CCc1ccccc1)C(C)C (stereo partly specified)
13) CCn1c(SCC(=O)Nc2ccc(S(=O)(=O)Nc3ccccn3)cc2)nnc1-c1ccncc1
14) Cc1ccc(C(=O)OCn2ncc(Cl)c(Cl)c2=O)cc1
15) CCOC(=O)c1ccc(NC(=O)Cn2ncc(Cl)c(Cl)c2=O)cc1
16) Cc1cc(OCc2nc(N)nc(N)c2-c2ccc(Cl)c(Cl)c2)ccc1[N+](=O)[O-]
assay / compound,9,10,11,12,13,14,15,16
iPSC survival up,-1,5,0,2,3,17,-4,-1
FN deposit inh,-11,.,.,.,.,17*,32*,34*
PGC1a acetyl inh,-12,2,4,4,12,.,.,12
Yeast UUG start,-8,-19,-11,-12,-14,-35,.,.
C2C12 statin,43,123*,-11,93*,95*,-8,.,.

17) Cc1nc(N)nc(N)c1-c1ccc(Cl)c(Cl)c1
18) CC1CCCCC1Nc1nc2ccc(Cl)cc2n2cnnc12 (stereo unspecified)
19) Cc1cc(C)cc(Nc2nc3ccc(C)cc3n3cnnc23)c1
20) COc1ccccc1NC(=O)c1cc2ccc(O)cc2o/c1=N\O
21) COc1ccccc1NC(=O)c1cc2ccccc2o/c1=N\O
22) CCOc1ccccc1Nc1nc(N)nc(Cl)c1CC
23) O=S(=O)(c1ccccc1F)N1C[C@H]2[C@@H](c3ccccc31)[C@@H](CO)N2Cc1ccc2c(c1)OCO2
24) COc1cc(C(=O)N(CCc2ccccc2)C2=CC3CCC(C2)N3C)cc(OC)c1OC (stereo unspecified)
assay / compound,17,18,19,20,21,22,23,24
iPSC survival up,2,0,0,0,1,4,.,0
FN deposit inh,.,-4,-2,.,.,-9,.,.
PGC1a acetyl inh,1,11,.,5,2,-8,-20,-7
Yeast UUG start,.,-11,-7,-16,-11,-11,1,0
C2C12 statin,0,98*,11,69*,-3,107*,29,91*

# A few values from above:
# COc1ccccc1NC(=O)c1cc2ccccc2o/c1=N\O in Yeast UUG start reads -11
# COc1ccccc1NC(=O)c1cc2ccc(O)cc2o/c1=N\O in PGC1a acetyl inh reads 5
# CC1CCCCC1Nc1nc2ccc(Cl)cc2n2cnnc12 (stereo unspecified) in PGC1a acetyl inh reads 11
# COc1cc(C(=O)N(CCc2ccccc2)C2=CC3CCC(C2)N3C)cc(OC)c1OC (stereo unspecified) in PGC1a acetyl inh reads -7

# Remaining list, next part.
25) O=C(NCC[C@H]1CC[C@@H](NS(=O)(=O)c2cccc(F)c2)[C@@H](CO)O1)C1CCCC1
26) CN(C)CCN(C(=O)c1ccc2ccccc2c1)c1nc2c(F)cccc2s1
27) N#Cc1sc2nc3c(c(-c4ccco4)c2c1N)CCCC3
28) CC(=O)NC[C@H]1[C@H](c2ccccc2)[C@H](CO)N1C(=O)Cc1cccnc1
29) CCOC1=C2[C@H](c3ccc(C)cc3)N(S(=O)(=O)c3ccc(C)cc3)C[C@H]2n2c(=O)n(-c3ccccc3)c(=O)n2C1
30) CC(=O)n1cc([C@H]2C=C(C(=O)N3CCCCCCC3)O[C@@H](OCc3ccc(CO)cc3)C2)c2ccccc21
31) CC(=O)n1cc([C@@H]2C=C(C(=O)N3CCN(Cc4ccccc4)CC3)O[C@H](OCc3ccc(CO)cc3)C2)c2ccccc21
32) COc1ccc(C(=O)c2sc(Nc3ccccc3)nc2N)cc1
assay / compound,25,26,27,28,29,30,31,32
iPSC survival up,.,0,4,.,41*,.,8,0
FN deposit inh,-2,4,.,-5,11,.,4,21
PGC1a acetyl inh,1,0,4,-10,13,-12,-5,.
Yeast UUG start,-4,-16,-25,10,-21,-10,-11,-11
C2C12 statin,-4,120*,98*,2,-19,.,86*,78*

33) C[C@@H]1CN([C@H](C)CO)C(=O)c2cccc(NS(=O)(=O)c3cccs3)c2O[C@H]1CN(C)S(=O)(=O)c1cn(C)cn1
34) CCC1(C)Cc2ccccc2C(=S)N1 (stereo unspecified)
35) CCC1(C)Cc2ccccc2C(=O)N1 (stereo unspecified)
36) CO[C@@H]1CN(C)C(=O)c2cc(NC(=O)C3CC3)ccc2OC[C@@H](C)N(C)C[C@@H]1C
37) Cc1ccc(S(=O)(=O)N2CC[C@H]3[C@H](CO)Nc4ccc(-c5cccc(C(=O)N(C)C)c5)cc4[C@H]32)cc1
38) CCOC(=O)N1CCN(C(=O)c2ccc3c(=O)n(CCc4ccccc4)c(=O)[nH]c3c2)CC1
39) C[C@@H]1CN(C)C(=O)Cc2cc([N+](=O)[O-])ccc2O[C@@H]1CN(C)C(=O)OC(C)(C)C
40) COC(=O)C1=C(N)N(c2ccccc2C(F)(F)F)C2=C(C(=O)CCC2)C1c1ccc2c(c1)OCO2 (stereo unspecified)
assay / compound,33,34,35,36,37,38,39,40
iPSC survival up,.,0,0,.,.,-3,.,1
FN deposit inh,.,-7,-4,-4,31*,1,0,.
PGC1a acetyl inh,-3,-4,-8,4,1,-13,.,-11
Yeast UUG start,5,-9,-16,-4,4,-20,.,-7
C2C12 statin,-13,88*,0,-3,-15,177*,.,93*

41) O=C1C[C@@H]2c3c(cccc3CN1Cc1ccc(Br)cc1)C[C@@H](O)[C@H]2O
42) C/C=C/c1cnc2c(c1)C(=O)N([C@H](C)CO)C[C@H](C)[C@@H](CN(C)C(=O)C1CCC1)O2
43) C/C=C/c1ccc([C@@H]2[C@@H](CNC(=O)c3ccncc3)N(C(C)=O)[C@H]2CO)cc1
44) COc1cccc(CNc2ccc(S(N)(=O)=O)cc2)c1OCc1ccccc1F
45) COc1cccc(CNc2ccccc2O)c1OCc1ccccc1F
46) CCOc1ccc(-c2nc(CSCC(=O)NCCN3CCOCC3)c(C)o2)cc1
47) C=CCN(c1ccccc1OC)S(=O)(=O)c1cccc(C(=O)OC2CCOC2=O)c1 (stereo unspecified)
48) CCN(CC)S(=O)(=O)c1cccc(C(=O)OC2CCOC2=O)c1 (stereo unspecified)
49) O=C(Nc1ccc(C(F)(F)F)cc1)N[C@@H]1CC[C@@H](CCn2cc(C3(O)CCCC3)nn2)O[C@H]1CO
50) CCc1nc(SCC(=O)Nc2cc(C)on2)c2c(C)c(C)sc2n1
assay / compound,41,42,43,44,45,46,47,48,49,50
iPSC survival up,-2,.,.,0,0,-3,3,2,.,0
FN deposit inh,4,-3,-7,11,.,.,.,-2,.,.
PGC1a acetyl inh,10,12,-3,.,-2,10,4,.,3,7
Yeast UUG start,-8,.,-13,.,-13,.,-4,-5,.,-7
C2C12 statin,100*,23,-10,.,96*,102*,114*,45,-6,130*

# Ordered by count of non-hydrogen atoms (lowest first): some entries from above.
43) C/C=C/c1ccc([C@@H]2[C@@H](CNC(=O)c3ccncc3)N(C(C)=O)[C@H]2CO)cc1
44) COc1cccc(CNc2ccc(S(N)(=O)=O)cc2)c1OCc1ccccc1F
42) C/C=C/c1cnc2c(c1)C(=O)N([C@H](C)CO)C[C@H](C)[C@@H](CN(C)C(=O)C1CCC1)O2
assay / compound,43,44,42
iPSC survival up,.,0,.
FN deposit inh,-7,11,-3
PGC1a acetyl inh,-3,.,12
Yeast UUG start,-13,.,.
C2C12 statin,-10,.,23
